Results as given in publication PMC2364737, “Phase I and pharmacokinetic (PK) study of MAG-CPT (PNU 166148): a polymeric derivative of camptothecin (CPT)” (British Journal of Cancer, 2004).

Experiments:
[1] = for AUC0– / CL (systemic clearance) / Vss (volume of distribution at steady state) / t1/2Z (apparent terminal half-life) / AUC0–∞ / Cmax (maximum concentration) / Tmax (time to maximum concentration): plasma
patients = details: first 3 days of a 28-day cycle (390 mg m^−2 per 4 week cycle); ref Schoemaker et al, 2002; cited from earlier work
[2] = ref Sarapa et al, 2003, cited from earlier work
[3] = xenograft-bearing mice, three days after a single i.v. treatment; ref Conover et al, 1998; Caiolfa et al, 2000; cited from earlier work
animals = details: toxicological studies in animals; cited from earlier work
[4] = tested on: patients with advanced solid malignancies; experiment: Phase I dose escalation study: safety, dose-limiting toxicity and MTD
Method: This was an open-label nonrandomised dose escalation study, conducted in sequential cohorts of patients from two institutions, Aberdeen Royal Infirmary, Aberdeen, and the Beatson Oncology Centre, Glasgow. It was performed under the auspices of the Cancer Research Campaign, London, with sponsorship by Pharmacia and Upjohn, Milan.
All patients had histologically or cytologically proven advanced solid malignancy that was refractory to conventional therapy. […] All patients gave written informed consent according to local Ethics Committee guidelines.
All doses of the investigational agent are expressed as mg of CPT equivalent. The drug was stored at room temperature. The vials were reconstituted with 10 ml normal saline and the dose to be administered was made up in 100 ml saline in a PVC infusion bag.
Thereafter, dose escalation was to continue according to a modified Fibonacci series. The dose escalation scheme could, however, be modified if considered appropriate based on acquired clinical and pharmacokinetic data. The MTD was defined as the highest dose at which at least three of six patients had dose-limiting toxicity (DLT).
Patients were to be retreated at 28-day intervals for up to six cycles. […] Treatment could be delayed for up to 2 weeks to allow resolution of toxicity.
During the course of the study patients were reviewed in the clinic every week with toxicity assessment, physical examination, FBC, and serum chemistry. Tumour assessment by imaging was repeated every three cycles. Chest X-ray and ECG were repeated at the end of study.

[5] = carrier-bound CPT, cycle 1, dose 30 mg m^−2, mean (s.d.)
[6] = carrier-bound CPT, cycle 1, dose 60 mg m^−2, mean (s.d.)
[7] = carrier-bound CPT, cycle 1, dose 120 mg m^−2, mean (s.d.)
[8] = carrier-bound CPT, cycle 1, dose 170 mg m^−2, mean (s.d.)
[9] = carrier-bound CPT, cycle 1, dose 200 mg m^−2, mean (s.d.)
[10] = carrier-bound CPT, cycle 1, dose 240 mg m^−2, mean, n=2
[11] = released-CPT, cycle 1, dose 30 mg m^−2, mean (s.d.)
[12] = released-CPT, cycle 1, dose 60 mg m^−2, mean (s.d.)
[13] = released-CPT, cycle 1, dose 120 mg m^−2, mean (s.d.)
[14] = released-CPT, cycle 1, dose 170 mg m^−2, mean (s.d.)
[15] = released-CPT, cycle 1, dose 200 mg m^−2, mean (s.d.)
[16] = released-CPT, cycle 1, dose 240 mg m^−2, mean (s.d.)
[17] = released-CPT, cycle 1, dose 240 mg m^−2, mean, n=2
[18] = 0–8 h, cycle 1, dose 30 mg m^−2, mean (s.d.)
[19] = 8–24 h, cycle 1, dose 30 mg m^−2, mean (s.d.)

For “copolymer of N-(hydroxypropyl) methacrylamide, (20-O-(N-methacryloyl-glycyl-aminohexanoyl-glycyl)) camptothecin and N-(2-hydroxypropyl) methacryloyl glycinamide [MAG-CPT]”, the “dose proportionality of carrier-bound CPT and released-CPT AUC0−∞” value ([1]; 30–240 mg m^−2) was “no substantial deviation from dose proportionality”, the “AUC0–” value [1, 5] was 976.2 (163.7) μg h ml^−1 and the “CL (systemic clearance)” value [1, 5] was 31.4 (5.8) ml h^−1 m^−2. The “Vss (volume of distribution at steady state)” value (“Vss” for short) [1, 5] was 7841 (1903) ml m^−2, the “t1/2Z (apparent terminal half-life)” value [1, 5] was 216 (22) h and the “AUC0–” value [1, 6] was 1760.7 (533.6) μg h ml^−1. The “CL (systemic clearance)” value [1, 6] was 36.2 (10.6) ml h^−1 m^−2, the “Vss” value [1, 6] was 5297 (529) ml m^−2 and the “t1/2Z (apparent terminal half-life)” value [1, 6] was 132 (49) h. The “AUC0–” value [1, 7] was 5747.6 (596.9) μg h ml^−1, the “CL (systemic clearance)” value [1, 7] was 21.0 (2.1) ml h^−1 m^−2 and the “Vss” value [1, 7] was 5710 (722) ml m^−2. The “t1/2Z (apparent terminal half-life)” value [1, 7] was 219 (16) h, the “AUC0–” value [1, 8] was 6559.1 (497.9) μg h ml^−1 and the “CL (systemic clearance)” value [1, 8] was 26.0 (1.9) ml h^−1 m^−2. For the same substance, the “Vss” value [1, 8] was 6289 (524) ml m^−2, the “t1/2Z (apparent terminal half-life)” value [1, 8] was 188 (29) h and the “AUC0–” value [1, 9] was 9305.3 (2170.5) μg h ml^−1. For the same substance, the “CL (systemic clearance)” value [1, 9] was 22.3 (4.7) ml h^−1 m^−2, the “Vss” value [1, 9] was 6481 (1883) ml m^−2 and the “t1/2Z (apparent terminal half-life)” value [1, 9] was 237 (37) h. The “CL (systemic clearance)” value [1, 10] was 23.0 (n=2) ml h^−1 m^−2, the “Vss” value [1, 10] was 4326 (n=2) ml m^−2 and the “t1/2Z (apparent terminal half-life)” value [1, 10] was 155 (n=2) h. For the same substance, the “mean plasma level of released-CPT” value ([1]; cycle 2, 200 mg m^−2, day 8) was 113 ng/mL, the “mean plasma level of released-CPT” value ([1]; cycle 2, 200 mg m^−2, day 29) was 25 ng/mL and the “plasma levels of released-CPT as % of carrier-bound drug concentrations (median)” value ([1]; in vivo) was 0.28%. The “plasma levels of released-CPT as % of carrier-bound drug concentrations (range)” value ([1]; in vivo) was 0.01–4.9%, the “time after treatment that carrier-bound and released-CPT were detectable in plasma” value ([1]; in vivo) was “up to 4 weeks” and the drug accumulation ([1]; patients who received multiple cycles) was “no evidence of drug accumulation”. The “dose dependence of plasma pharmacokinetic parameters of carrier-bound CPT” value ([1]; range of tested dose levels) was “dose independent”, the “AUC0–∞” value [1, 11] was 10.0 (4.5) μg h ml^−1 and the “Cmax (maximum concentration)” value [1, 11] was 0.060 (0.039) μg ml^−1. For the same substance, the “Tmax (time to maximum concentration)” value [1, 11] was 25 (0) h, the “t1/2Z (apparent terminal half-life)” value [1, 11] was 168 (107) h and the “AUC0–∞” value [1, 12] was 24.3 (12.0) μg h ml^−1. For the same substance, the “Cmax (maximum concentration)” value [1, 12] was 0.141 (0.087) μg ml^−1, the “Tmax (time to maximum concentration)” value [1, 12] was 25 (0) h and the “t1/2Z (apparent terminal half-life)” value [1, 12] was 185 (97) h. The “AUC0–∞” value [1, 13] was 37.8 (20.0) μg h ml^−1, the “Cmax (maximum concentration)” value [1, 13] was 0.196 (0.079) μg ml^−1 and the “Tmax (time to maximum concentration)” value [1, 13] was 15 (9) h. The “t1/2Z (apparent terminal half-life)” value [1, 13] was 216 (58) h, the “AUC0–∞” value [1, 14] was 31.5 (10.8) μg h ml^−1 and the “Cmax (maximum concentration)” value [1, 14] was 0.127 (0.023) μg ml^−1. For the same substance, the “Tmax (time to maximum concentration)” value [1, 14] was 25 (0) h, the “t1/2Z (apparent terminal half-life)” value [1, 14] was 224 (23) h and the “AUC0–∞” value [1, 15] was 43.8 (25.5) μg h ml^−1. For the same substance, the “Cmax (maximum concentration)” value [1, 15] was 0.230 (0.133) μg ml^−1, the “Tmax (time to maximum concentration)” value [1, 15] was 25 (11) h and the “t1/2Z (apparent terminal half-life)” value [1, 15] was 209 (64) h. For the same substance, the “Cmax (maximum concentration)” value [1, 16] was 0.589 (0.105) μg ml^−1, the “Tmax (time to maximum concentration)” value [1, 16] was 28 (19) h and the “AUC0–∞” value [1, 17] was 73.3 (n=2) μg h ml^−1. The “t1/2Z (apparent terminal half-life)” value [1, 17] was 228 (n=2) h, the “dose at which bladder toxicity (dysuria and haematuria) was dose limiting” value (patients) was 130 mg m^−2 day and the “retention of the cytotoxic within the tumour” value ([2]; single dose 60 mg m^−2, up to 7 days after injection) was “no evidence of preferential retention”. The “concentrations of released CPT in tumour versus normal colon” value ([2]; single dose 60 mg m^−2 up to 7 days prior to surgery, colorectal cancer) was “consistently lower in tumour than in normal colon”, the “tumour concentrations of CPT versus plasma levels” value [3] was “exceeding plasma levels” and the “major toxicities in animals” value (animals) was “myelosuppression, diarrhoea, and transient impairment of renal and hepatic function”. For the same substance, the “Ae (amount of total CPT excreted in urine)” value [18] was 31.1 (5.2) mg, the “fe (total CPT excreted in urine as percentage of dose)” value [18] was 58.4 (5.6) % dose and the “Ae (amount of total CPT excreted in urine)” value (0–8 h, cycle 1, dose 60 mg m^−2, mean (s.d.)) was 42.6 (13.2) mg. The “Ae (amount of total CPT excreted in urine)” value (0–8 h, cycle 1, dose 120 mg m^−2, mean (s.d.)) was 133.0 (52.4) mg, the “Ae (amount of total CPT excreted in urine)” value (0–8 h, cycle 1, dose 170 mg m^−2, mean (s.d.)) was 125.1 (49.2) mg and the “Ae (amount of total CPT excreted in urine)” value (0–8 h, cycle 1, dose 200 mg m^−2, mean (s.d.)) was 322.8 (178.7) mg. For the same substance, the “Ae (amount of total CPT excreted in urine)” value (0–8 h, cycle 1, dose 240 mg m^−2, mean (s.d.)) was 777.8 (659.6) mg, the “Ae (amount of total CPT excreted in urine)” value (0–24 h, cycle 1, dose 30 mg m^−2, mean (s.d.)) was 41.3 (7.0) mg and the “Ae (amount of total CPT excreted in urine)” value (0–24 h, cycle 1, dose 60 mg m^−2, mean (s.d.)) was 61.6 (9.2) mg. The “Ae (amount of total CPT excreted in urine)” value (0–24 h, cycle 1, dose 120 mg m^−2, mean (s.d.)) was 169.5 (64.1) mg, the “Ae (amount of total CPT excreted in urine)” value (0–24 h, cycle 1, dose 170 mg m^−2, mean (s.d.)) was 171.2 (47.3) mg and the “mean urinary concentration of total CPT” value (200 mg m^−2, week 2 of first cycle) was 2.8 µg/mL. The “mean urinary concentration of total CPT” value (200 mg m^−2, week 4 of first cycle) was 0.5 µg/mL, the “Ae (amount of total CPT excreted in urine)” value [19] was 10.2 (1.8) mg and the “fe (total CPT excreted in urine as percentage of dose)” value [19] was 19.1 (1.7) % dose. The “Ae (amount of total CPT excreted in urine)” value (8–24 h, cycle 1, dose 60 mg m^−2, mean (s.d.)) was 18.9 (4.6) mg, the “Ae (amount of total CPT excreted in urine)” value (8–24 h, cycle 1, dose 120 mg m^−2, mean (s.d.)) was 36.5 (21.5) mg and the “Ae (amount of total CPT excreted in urine)” value (8–24 h, cycle 1, dose 170 mg m^−2, mean (s.d.)) was 46.1 (18.5) mg. The “Ae (amount of total CPT excreted in urine)” value (8–24 h, cycle 1, dose 200 mg m^−2, mean (s.d.)) was 97.8 (51.2) mg, the “Ae (amount of total CPT excreted in urine)” value (8–24 h, cycle 1, dose 240 mg m^−2, mean (s.d.)) was 104.6 (92.1) mg and the “drug in urine 28 days postdosing” value (all dose levels) was “detected at all dose levels in the urine of most patients”. The “administered dose of total CPT recovered in the urine during the first 24 h” value (all doses tested, on average) was “at least 50%”, the drug-related toxicity ([4]; 170 mg m^−2, three patients) was “No significant drug-related toxicity” and the “patients with dose-limiting haematological and nonhaematological toxicities” value ([4]; 240 mg m^−2) was “all three patients”. For the same substance, the “toxicity following cycle 1, second patient” value ([4]; 240 mg m^−2, malignant mesothelioma) was “grade 3 diarrhoea and grade 3 myelosuppression”, the “toxicity following cycle 1, first patient” value ([4]; 240 mg m^−2, metastatic colorectal carcinoma) was “grade 4 myelosuppression and grade 2 diarrhoea” and the “toxicity following cycle 1, third patient” value ([4]; 240 mg m^−2, squamous carcinoma of unknown primary) was “grade 3 diarrhoea with no myelosuppression”. The drug-related toxicities ([4]; 30, 60, or 120 mg m^−2 dose levels) was “No significant drug-related toxicities”, the dose-limiting toxicities ([4]; 30-min infusion once every 4 weeks) was “myelosuppression, neutropaenic sepsis, and diarrhoea” and the “maximum tolerated dose (MTD)” value ([4]; 30-min infusion once every 4 weeks, dose as mg equivalent camptothecin) was 240 mg m^−2. For the same substance, the death on study ([4]; after cycle 1 at the maximum dose (240 mg m^−2)) was “One patient died” and the haematological toxicity ([4]; intermediate dose levels 170 and 200 mg m^−2) was “No significant haematological toxicity”.

Read-outs that look alike come from different tables or passages of the source.
